Test results from patent publication US6365173B1, “Stereocomplex polymeric carriers for drug delivery” (Efrat Biopolymers Ltd., priority 1999, dated 2002).

Assay: HSA release from PLA stereocomplex precipitates in phosphate buffer
Type: physicochemical
Conditions: precipitates with D-PLA/L-PLA or D-PLA (Mw=6,000) dispersed in phosphate buffer (pH 7.4) at 37° C.
Protocol: Human serum albumin (HSA, 100 mg) was stereocomplexed at 60° C. for 48 hours with a mixture of D-PLA (1 g, Mw=6,000) and L-PLA (1 g, Mw=6,000) or with D-PLA (2 g, Mw=6,000) or with DL-PLA in dioxane (50 ml). A precipitate was obtained for the D-PLA/L-PLA mixture and for the D-PLA solution while very little precipitate was detected for the DL-PLA solution. Accordingly, as determined by the Nynhidrin method for peptide and protein analysis, less than 5% of the HSA was detected in the acetonitrile solutions of the enantiomeric polymers, while most albumin was found in the acetonitrile solution of DL-PLA The precipitates were dispersed in phosphate buffer (pH 7.4) at 37° C. HAS was constantly released from the precipitates for 6 weeks.

In the case of Human serum albumin [HAS], the “time over which HSA was constantly released from the precipitates” value is reported as 6 weeks.
